Measurements taken from US20060024297A1 (published 2006).

Chains of the proteins cited; added tags and fusions are not shown. Lines headed by an entry give the natural chain unless they say otherwise; changes in a name come on top.
UniProt P14753: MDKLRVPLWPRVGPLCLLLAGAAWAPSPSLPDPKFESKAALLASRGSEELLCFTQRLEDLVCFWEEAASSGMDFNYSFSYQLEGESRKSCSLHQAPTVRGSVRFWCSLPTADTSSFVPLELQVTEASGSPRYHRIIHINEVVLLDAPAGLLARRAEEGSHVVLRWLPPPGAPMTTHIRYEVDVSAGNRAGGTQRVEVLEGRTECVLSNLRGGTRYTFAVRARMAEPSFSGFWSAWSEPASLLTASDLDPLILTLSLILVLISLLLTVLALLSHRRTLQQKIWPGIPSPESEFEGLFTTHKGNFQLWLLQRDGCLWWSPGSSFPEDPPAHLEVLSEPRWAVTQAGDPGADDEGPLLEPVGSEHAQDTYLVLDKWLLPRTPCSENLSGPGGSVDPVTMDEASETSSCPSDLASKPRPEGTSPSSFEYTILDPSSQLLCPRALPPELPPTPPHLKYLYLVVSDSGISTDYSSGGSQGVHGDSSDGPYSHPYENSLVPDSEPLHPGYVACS

Target: Tie1-EpoR chimeric receptor (extracellular domain of human Tie1 fused with the transmembrane and cytoplasmic domains of mouse erythropoietin receptor) on Ba/F3 cells (human; mouse) (UniProt P14753)
Assay: cell-based or functional assay

Which Average MTT activity in BaF3 cell assay, treatment E3 + PA10 (absorbance (540 nm)) does the source give for “P-A10 IgG (anti-Tie1 isolate p-A10, human IgG1) (antibody)” here?
Its Average MTT activity in BaF3 cell assay, treatment E3 + PA10 (absorbance (540 nm)) is 0.65.

For “P-A1 IgG (anti-Tie1 isolate p-A1, human IgG1) (antibody)”, which Average MTT activity in BaF3 cell assay, treatment E3 + PA1 (absorbance (540 nm)) is on record?
The Average MTT activity in BaF3 cell assay, treatment E3 + PA1 (absorbance (540 nm)) was 0.6.
